Data on two molecules can be found in paper PMC2637613 (Basic & clinical pharmacology & toxicology, 2008).

The chains behind the UniProt entries cited, without tags or fusion partners. Where a name states a change or a piece, a line headed by the entry shows the natural chain unless it says otherwise.
UniProt Q9UNQ0: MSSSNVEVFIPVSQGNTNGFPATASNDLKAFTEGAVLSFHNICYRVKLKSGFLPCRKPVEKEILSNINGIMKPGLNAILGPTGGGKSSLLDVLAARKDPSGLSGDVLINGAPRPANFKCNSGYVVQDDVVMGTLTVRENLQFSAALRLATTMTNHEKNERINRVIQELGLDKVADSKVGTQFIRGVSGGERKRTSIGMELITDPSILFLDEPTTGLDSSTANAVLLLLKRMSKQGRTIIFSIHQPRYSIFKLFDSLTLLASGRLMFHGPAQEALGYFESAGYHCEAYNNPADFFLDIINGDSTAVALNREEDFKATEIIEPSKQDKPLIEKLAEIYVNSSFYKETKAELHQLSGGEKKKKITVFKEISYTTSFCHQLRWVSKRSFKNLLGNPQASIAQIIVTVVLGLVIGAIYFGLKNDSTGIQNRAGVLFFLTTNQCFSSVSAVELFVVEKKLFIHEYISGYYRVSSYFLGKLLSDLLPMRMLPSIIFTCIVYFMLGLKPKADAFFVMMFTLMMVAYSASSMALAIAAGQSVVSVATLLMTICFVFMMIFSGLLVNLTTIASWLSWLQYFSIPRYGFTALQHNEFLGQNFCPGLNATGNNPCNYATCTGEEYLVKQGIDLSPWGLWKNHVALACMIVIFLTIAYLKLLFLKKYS

The IC50 is the concentration that inhibits the measured activity by half. The low end stands for higher potency, the high end for lower potency.

The target of data set [1] is T1, BCRP (Homo sapiens, UniProt Q9UNQ0). Description: cell-based.
Data set [2] deals with T1, BCRP. The following applies: estimated liver concentration divided by BCRP IC50 in MCF7/MX100 cells.

A value given as a limit tells only on which side of the number the result lay.

In the case of `Cc1nc2n(c(=O)c1CCN1CCC(c3noc4cc(F)ccc34)CC1)CCCC2` [Risperidone], the IC50 in data set [1] was determined as 38.1 µM. For the same molecule, the “Cmax * liver:plasma partition ratio/IC50” value in data set [2] is listed as 0.2.

With `Cc1cc2c(s1)Nc1ccccc1N=C2N1CCN(C)CC1` [Olanzapine], the concentration for half-maximal inhibition (IC50) in data set [1] is > 100 µM. Further, the “Cmax * liver:plasma partition ratio/IC50” value in data set [2] is given as <0.09.
